Chains of the proteins cited; added tags and fusions are not shown. Lines headed by an entry give the natural chain unless they say otherwise; changes in a name come on top.
UniProt P41146: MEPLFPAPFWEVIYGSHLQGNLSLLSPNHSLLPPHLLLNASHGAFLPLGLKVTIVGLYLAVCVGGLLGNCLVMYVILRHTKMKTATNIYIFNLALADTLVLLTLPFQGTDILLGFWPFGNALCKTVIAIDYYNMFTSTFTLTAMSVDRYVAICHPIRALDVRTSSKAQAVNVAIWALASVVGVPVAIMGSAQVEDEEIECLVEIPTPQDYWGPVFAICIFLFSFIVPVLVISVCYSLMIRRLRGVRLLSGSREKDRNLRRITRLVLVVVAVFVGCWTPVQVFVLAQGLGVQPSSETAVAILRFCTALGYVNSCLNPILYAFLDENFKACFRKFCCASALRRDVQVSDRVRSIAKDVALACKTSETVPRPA

According to ChEMBL document CHEMBL1133540, “4-Aminoquinolines: novel nociceptin antagonists with analgesic activity” (J Med Chem, 2000):

Molecular target: Nociceptin receptor (Homo sapiens, UniProt P41146)
Assay: Ability to displace [3H]nociceptin ( 0.5 nM ) binding from Opioid receptor like 1 expressed in HeLa cells.
Format: cell-based
How it was run: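 Membranes from HeLa cells expressing human ORL1 (25 μg protein/mL) in 50 mM Tris pH 8.5 with 2 mM EDTA, 0.1 mM p-aminophenylmethanesulfonyl fluoride and 2 mg/mL BSA. Incubated 30 min at room temperature with 0.5 nM [3H]nociceptin and varied compound concentrations. Bound radioactivity was collected by filtration and counted by scintillation. Nonspecific binding was set with 1 μM unlabeled nociceptin. Ki reported as mean ± SE, n=3-6.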

`COc1ccc(OCc2ccccc2C(=O)Nc2ccc3nc(C)cc(N)c3c2)cc1` showed a Ki of 11.8 nM.

`Cc1cc(N)c2cc(NC(=O)c3ccccc3COc3ccccc3Cl)ccc2n1` was tested, and the Ki was 13.2 nM.

`Cc1cc(N)c2cc(NC(=O)c3ccccc3COc3ccc([N+](=O)[O-])cc3)ccc2n1` showed a Ki of 2.3 nM.
